This passage reports Ki results from patent US9890152B2 (Genentech, Inc., priority 2012, dated 2018).

Sequences of proteins named here, by UniProt entry; tags and fusion partners are left off. Residues count along the entry.
UniProt P00533, 25-1210 T790M/L858R limits assumed: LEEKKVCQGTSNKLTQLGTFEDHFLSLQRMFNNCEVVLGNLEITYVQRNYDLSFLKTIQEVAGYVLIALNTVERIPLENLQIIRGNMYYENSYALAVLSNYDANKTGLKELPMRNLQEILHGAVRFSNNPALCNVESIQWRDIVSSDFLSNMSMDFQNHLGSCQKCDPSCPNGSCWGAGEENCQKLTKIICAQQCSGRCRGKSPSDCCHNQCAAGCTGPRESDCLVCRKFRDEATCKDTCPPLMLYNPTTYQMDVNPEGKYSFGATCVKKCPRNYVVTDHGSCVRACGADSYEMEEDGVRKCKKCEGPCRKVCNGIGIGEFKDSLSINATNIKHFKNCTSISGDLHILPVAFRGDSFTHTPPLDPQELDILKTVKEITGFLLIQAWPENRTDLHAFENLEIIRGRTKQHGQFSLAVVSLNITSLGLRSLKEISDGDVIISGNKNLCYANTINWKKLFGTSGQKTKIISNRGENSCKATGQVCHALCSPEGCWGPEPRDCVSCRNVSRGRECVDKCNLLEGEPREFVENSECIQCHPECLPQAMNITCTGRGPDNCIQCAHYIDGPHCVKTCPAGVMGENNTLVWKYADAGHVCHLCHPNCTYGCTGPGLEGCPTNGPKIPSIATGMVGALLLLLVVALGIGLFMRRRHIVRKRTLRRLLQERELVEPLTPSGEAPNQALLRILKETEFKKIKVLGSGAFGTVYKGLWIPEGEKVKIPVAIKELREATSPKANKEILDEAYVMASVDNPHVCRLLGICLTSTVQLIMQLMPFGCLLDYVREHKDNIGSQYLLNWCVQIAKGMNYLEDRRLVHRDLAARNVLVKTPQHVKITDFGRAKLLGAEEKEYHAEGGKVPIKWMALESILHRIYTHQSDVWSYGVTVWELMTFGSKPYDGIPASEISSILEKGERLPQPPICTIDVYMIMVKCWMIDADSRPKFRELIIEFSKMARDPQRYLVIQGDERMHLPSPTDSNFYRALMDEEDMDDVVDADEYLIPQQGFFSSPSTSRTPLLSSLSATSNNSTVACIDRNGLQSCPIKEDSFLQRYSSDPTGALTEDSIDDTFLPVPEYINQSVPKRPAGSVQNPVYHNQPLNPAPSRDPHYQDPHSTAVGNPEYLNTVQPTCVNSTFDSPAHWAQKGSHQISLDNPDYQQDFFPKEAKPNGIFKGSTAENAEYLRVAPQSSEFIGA

In this experiment the target is EGFR T790M L858R (Homo sapiens, UniProt P00533, L858R/T790M). Nature of the experiment: biochemical. The settings on record: EGFR(T790M/L858R) Ki (μM), 5 μM ATP, 30 min, room temperature; apparent Ki (Morrison) converted by Cheng-Prusoff, Km of ATP 1.3 μM.

On to `CC(C)n1c(C(F)F)nc2cnc(Nc3ccnc(-c4cnn(S(=O)(=O)C(C)C)c4)n3)cc21` [Example 469, 2-(difluoromethyl)-1-isopropyl-N-(2-(1-(isopropylsulfonyl)-1H-pyrazol-4-yl)pyrimidin-4-yl)-1H-imidazo[4,5-c]pyridin-6-amine], for which the Ki is 0.0159 µM.
For `CC(C)n1c(CO)nc2cnc(Nc3ccnc(-c4cnn(CC(C)(C)CO)c4)n3)cc21` [Example 470, 3-(4-(4-(2-(hydroxymethyl)-1-isopropyl-1H-imidazo[4,5-c]pyridin-6-ylamino)pyrimidin-2-yl)-1H-pyrazol-1-yl)-2,2-dimethylpropan-1-ol], the Ki was found to be 0.0758 µM.
In the case of `CC(C)n1c(CO)nc2cnc(Nc3ccnc(-c4cnn(CC(C)(C)C(N)=O)c4)n3)cc21` [Example 471, 3-(4-(4-(2-(hydroxymethyl)-1-isopropyl-1H-imidazo[4,5-c]pyridin-6-ylamino)pyrimidin-2-yl)-1H-pyrazol-1-yl)-2,2-dimethylpropanamide], the Ki was 0.0675 µM.
Regarding `CC(C)(CCO)n1c(CO)nc2cnc(Nc3ccnc(-c4cnn(S(=O)(=O)C5CC5)c4)n3)cc21` [Example 472, 3-(6-(2-(1-(cyclopropylsulfonyl)-1H-pyrazol-4-yl)pyrimidin-4-ylamino)-2-(hydroxymethyl)-1H-imidazo[4,5-c]pyridin-1-yl)-3-methylbutan-1-ol], the Ki is 0.0291 µM.
The figure for `CN1CC(n2c(CO)nc3cnc(Nc4ccnc(-c5cnn(S(=O)(=O)C6CC6)c5)n4)cc32)CC1=O` (stereo not shown) [Example 476, 4-(6-(2-(1-(cyclopropylsulfonyl)-1H-pyrazol-4-yl)pyrimidin-4-ylamino)-2-(hydroxymethyl)-1H-imidazo[4,5-c]pyridin-1-yl)-1-methylpyrrolidin-2-one] is 0.0909 µM; for `CC1(n2c(CO)nc3cnc(Nc4ccnc(-c5cnn(S(=O)(=O)C6CC6)c5)n4)cc32)CCCC1` [Example 477, (6-(2-(1-(cyclopropylsulfonyl)-1H-pyrazol-4-yl)pyrimidin-4-ylamino)-1-(1-methylcyclopentyl)-1H-imidazo[4,5-c]pyridin-2-yl)methanol] it is 0.00163 µM; for `CC(C)CC(C)n1c(CO)nc2cnc(Nc3ccnc(-c4cnn(S(=O)(=O)C5CC5)c4)n3)cc21` (stereo not shown) [Example 478, (6-(2-(1-(cyclopropylsulfonyl)-1H-pyrazol-4-yl)pyrimidin-4-ylamino)-1-(4-methylpentan-2-yl)-1H-imidazo[4,5-c]pyridin-2-yl)methanol] it is 0.0257 µM.
On to `O=S(=O)(C1CC1)n1cc(-c2nccc(Nc3cc4c(cn3)nc(CO)n4C3CCCCC3)n2)cn1` [Example 479, (1-cyclohexyl-6-(2-(1-(cyclopropylsulfonyl)-1H-pyrazol-4-yl)pyrimidin-4-ylamino)-1H-imidazo[4,5-c]pyridin-2-yl)methanol], for which the Ki amounted to 0.00466 µM.
The figure for `O=S(=O)(C1CC1)n1cc(-c2nccc(Nc3cc4c(cn3)nc(CO)n4C3CC(F)(F)C3)n2)cn1` [Example 480, (6-(2-(1-(cyclopropylsulfonyl)-1H-pyrazol-4-yl)pyrimidin-4-ylamino)-1-(3,3-difluor^oCyclobutyl)-1H-imidazo[4,5-c]pyridin-2-yl)methanol] is 0.471 µM; for `O=S(=O)(C1CC1)n1cc(-c2nccc(Nc3cc4c(cn3)nc(CO)n4C3CCCC3)n2)cn1` [Example 481, (1-cyclopentyl-6-(2-(1-(cyclopropylsulfonyl)-1H-pyrazol-4-yl)pyrimidin-4-ylamino)-1H-imidazo[4,5-c]pyridin-2-yl)methanol] it is 0.0104 µM.
In the case of `O=S(=O)(C1CC1)n1cc(-c2nccc(Nc3cc4c(cn3)nc(CO)n4C3CCC(F)(F)C3)n2)cn1` (stereo not shown) [Example 482, (6-((2-(1-(cyclopropylsulfonyl)-1H-pyrazol-4-yl)pyrimidin-4-yl)amino)-1-(3,3-difluorocyclopentyl)-1H-imidazo[4,5-c]pyridin-2-yl)methanol] it was 0.138 µM.
In the case of `O=S(=O)(C1CC1)n1cc(-c2nccc(Nc3cc4c(cn3)nc(CO)n4CCC(F)(F)F)n2)cn1` [Example 483, (6-(2-(1-(cyclopropylsulfonyl)-1H-pyrazol-4-yl)pyrimidin-4-ylamino)-1-(3,3,3-trifluoropropyl)-1H-imidazo[4,5-c]pyridin-2-yl)methanol] it was 0.0186 µM.
Take `CC1(n2c(CO)nc3cnc(Nc4ccnc(-c5cnn(S(=O)(=O)C6CC6)c5)n4)cc32)CCC1` [Example 484, (6-(2-(1-(cyclopropylsulfonyl)-1H-pyrazol-4-yl)pyrimidin-4-ylamino)-1-(1-methylcyclobutyl)-1H-imidazo[4,5-c]pyridin-2-yl)methanol]: the Ki amounted to 0.00124 µM.
For `CC(C)(C)n1c(CO)nc2cnc(Nc3ccnc(-c4cnn(S(=O)(=O)C5CC5)c4)n3)cc21` [Example 485, (1-tert-butyl-6-(2-(1-(cyclopropylsulfonyl)-1H-pyrazol-4-yl)pyrimidin-4-ylamino)-1H-imidazo[4,5-c]pyridin-2-yl)methanol], the Ki turned out to be 0.0026 µM.
The figure for `O=S(=O)(C1CC1)n1cc(-c2nccc(Nc3cc4c(cn3)nc(CO)n4CCc3ccccc3)n2)cn1` [Example 486, (6-(2-(1-(cyclopropylsulfonyl)-1H-pyrazol-4-yl)pyrimidin-4-ylamino)-1-phenethyl-1H-imidazo[4,5-c]pyridin-2-yl)methanol] is 0.17 µM; for `CC(C)C(C)n1c(CO)nc2cnc(Nc3ccnc(-c4cnn(S(=O)(=O)C5CC5)c4)n3)cc21` (stereo not shown) [Example 487, (6-(2-(1-(cyclopropylsulfonyl)-1H-pyrazol-4-yl)pyrimidin-4-ylamino)-1-(3-methylbutan-2-yl)-1H-imidazo[4,5-c]pyridin-2-yl)methanol] it is 0.00895 µM; for `CC(CC1CC1)n1c(CO)nc2cnc(Nc3ccnc(-c4cnn(S(=O)(=O)C5CC5)c4)n3)cc21` (stereo not shown) [Example 488, (1-(1-cyclopropylpropan-2-yl)-6-(2-(1-(cyclopropylsulfonyl)-1H-pyrazol-4-yl)pyrimidin-4-ylamino)-1H-imidazo[4,5-c]pyridin-2-yl)methanol] it is 0.00303 µM.
The figure for `COC1CCN(c2nccc(Nc3cc4c(cn3)nc(C)n4C(C)CO)n2)CC1` (stereo not shown) [Example 489, 2-{6-[2-(4-Methoxypiperidin-1-yl)pyrimidin-4-ylamino]-2-methyl-imidazo[4,5-c]pyridin-1-yl}propan-1-ol] is 0.0841 µM.
In the case of `COC[C@H](C)n1c(C)nc2cnc(Nc3ccnc(N4CCC(OC)CC4)n3)cc21` [Example 490, [1-((S)-2-Methoxy-1-methylethyl)-2-methyl-1H-imidazo [4,5-c]pyridin-6-yl]-[2-(4-methoxypiperidin-1-yl)pyrimidin-4-yl]amine] it was 0.0848 µM; in that of `COCCC(C)n1c(C)nc2cnc(Nc3ccnc(N4CCC(OC)CC4)n3)cc21` (stereo not shown) [Example 491, [1-(3-Methoxy-1-methylpropyl)-2-methyl-1H-imidazo[4,5-c]pyridin-6-yl]-[2-(4-methoxypiperidin-1-yl)pyrimidin-4-yl]amine], 0.0692 µM.
As for `COC1CCN(c2nccc(Nc3cc4c(cn3)nc(C)n4C(C)CCO)n2)CC1` (stereo not shown) [Example 492, 3-{6-[2-(4-Methoxypiperidin-1-yl)pyrimidin-4-ylamino]-2-methylimidazo[4,5-c]pyridin-1-yl}butan-1-ol], the Ki was found to be 0.0498 µM.
The figure for `CO[C@H]1C[C@H]2CC[C@@H](C1)N2c1nccc(Nc2cc3c(cn2)nc(C)n3C(C)C)n1` [Example 493, (1-Isopropyl-2-methyl-1H-imidazo[4,5-c]pyridin-6-yl)-[2-((1RS,3RS,5SR)-3-methoxy-8-azabicyclo[3.2.1]oct-8-yl)pyrimidin-4-yl]amine] is 0.0398 µM; for `COC1CCN(c2nccc(Nc3cc4c(cn3)nc(C)n4-c3ccccc3)n2)CC1` [Example 494, N-(2-(4-Methoxypiperidin-yl)pyrimidin-4-yl)-2-methyl-1-phenyl-1H-imidazo[4,5-c]pyridin-6-amine] it is 0.00851 µM; for `Cc1nc2cnc(Nc3ccnc(N4CCC5(CCO5)CC4)n3)cc2n1C(C)C` [Example 495, N-(2-(1-Oxa-7-azaspiro[3.5]nonan-7-yl)pyrimidin-4-yl)-1-isopropyl-2-methyl-1H-imidazo[4,5-c]pyridin-6-amine] it is 0.0139 µM.
`Cc1nc2cnc(Nc3ccnc(N4Cc5c[nH]nc5C4)n3)cc2n1C(C)C` [Example 496, 1-Isopropyl-2-methyl-N-(2-(pyrrolo[3,4-c]pyrazol-5(2H,4H,6H)-yl)pyrimidin-4-yl)-1H-imidazo[4,5-c]pyridin-6-amine]: the Ki stood at 0.0566 µM.
In the case of `COC1(CCCO)CCN(c2nccc(Nc3cc4c(cn3)nc(C)n4C(C)C)n2)CC1` [Example 497, 3-(1-(4-((1-Isopropyl-2-methyl-1H-imidazo[4,5-c]pyridin-6-yl)amino)pyrimidin-2-yl)-4-methoxypiperidin-4-yl)propan-1-ol] it was 0.0769 µM; in that of `Cc1nc2cnc(Nc3ccnc(C4=CCOCC4)n3)cc2n1C(C)C` [Example 500, N-(2-(3,6-Dihydro-2H-pyran-4-yl)pyrimidin-4-yl)-1-isopropyl-2-methyl-1H-imidazo[4,5-c] pyridin-6-amine], 0.0842 µM.
As to `Cc1nc2cnc(Nc3ccnc(C4CCOCC4)n3)cc2n1C(C)C` [Example 501, 1-Isopropyl-2-methyl-N-(2-(tetrahydro-2H-pyran-4-yl)pyrimidin-4-yl)-1H-imidazo[4,5-c]pyridin-6-amine], the Ki was determined as 0.484 µM.
The figure for `Cc1nc2cnc(Nc3ccnc(N4CCC5(CCNC5=O)CC4)n3)cc2n1C(C)C` [Example 502, 8-(4-((1-Isopropyl-2-methyl-1H-imidazo[4,5-c]pyridin-6-yl)amino)pyrimidin-2-yl)-2,8-diazaspiro[4.5]decan-1-one] is 0.118 µM; for `Cc1nc2cnc(Nc3ccnc(N4CCC(O)CC4)n3)cc2n1C(C)C` [Example 503, 1-(4-((1-Isopropyl-2-methyl-1H-imidazo[4,5-c]pyridin-6-yl)amino)pyrimidin-2-yl)piperidin-4-ol] it is 0.0334 µM.
The figure for `CC(C)n1c(CO)nc2cnc(Nc3ccnc(N4CCC(O)CC4)n3)cc21` [Example 504, 1-(4-((2-(Hydroxymethyl)-isopropyl-1H-imidazo[4,5-c]pyridin-6-yl)amino)pyrimidin-2-yl)piperidin-4-ol] is 0.0436 µM.
